Experimental findings from patent US6727268B2, “2-thioxothiazole derivative, method for preparing the same, and pharmaceutical composition containing the same” (CJ Corp., priority 2002, dated 2004) are described below.

As a reminder, the inhibition is the percentage by which the read-out fell short of the control.

The test addresses T1, COX-2 (Mus musculus, UniProt Q05769).
T1 construct: host or cells: RAW 264.7 cells, pre-treated with aspirin and induced with interferon and LPS
T1 sequence (Q05769 18-604): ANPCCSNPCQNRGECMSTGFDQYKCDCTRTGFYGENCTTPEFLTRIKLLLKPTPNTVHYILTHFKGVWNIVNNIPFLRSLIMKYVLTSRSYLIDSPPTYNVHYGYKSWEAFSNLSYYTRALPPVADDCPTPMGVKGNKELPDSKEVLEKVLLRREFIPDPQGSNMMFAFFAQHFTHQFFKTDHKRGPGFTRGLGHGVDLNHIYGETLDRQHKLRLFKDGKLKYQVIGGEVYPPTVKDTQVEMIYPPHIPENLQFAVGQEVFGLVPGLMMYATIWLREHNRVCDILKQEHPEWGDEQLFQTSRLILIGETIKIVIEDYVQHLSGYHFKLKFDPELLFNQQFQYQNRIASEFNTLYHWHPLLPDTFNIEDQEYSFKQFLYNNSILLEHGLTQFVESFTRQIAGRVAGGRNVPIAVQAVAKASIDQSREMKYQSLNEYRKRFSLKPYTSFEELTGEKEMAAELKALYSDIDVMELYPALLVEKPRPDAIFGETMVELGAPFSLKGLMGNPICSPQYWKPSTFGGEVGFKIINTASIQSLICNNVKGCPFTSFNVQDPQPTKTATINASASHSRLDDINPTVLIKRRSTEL
As to the kind of experiment: Assay for the COX-2 inhibitory activity using RAW 264.7 cell line (PGE2, EIA). In kind it is cell-based. The following applies: RAW264.7, 10 nM test compound, RAW 264.7 cells, aspirin pre-treated, interferon + LPS 18 hours, read-out: Cyclooxygenase (COX) Inhibition (%) COX-2 (10 nM). The method, then:
Each well was treated with 250 μM of aspirin and incubated at 37° C. for 2 hours. After the culture media were replaced with new culture media, the new culture media were treated with a test compound (10 nM) and incubated for 30 minutes. Then, each well was treated with interferon ? (100 units/ml) and lipopolysaccharide (LPS, 100 ng/ml) and incubated for 18 hours. The culture media were transferred to other test tubes. The concentration of PGE2 was quantified by means of the EIA kit (Cayman Chemicals).
The percentages of the COX inhibition were calculated according to the following equation: [formula]

For `Cc1onc(-c2ccccc2)c1-c1ccc(S(N)(=O)=O)cc1` [Reference (Valdecoxib), Valdecoxib, reference compound], the inhibition at 0.01 µM was 60.2%.
